## Membrane permeability of cyclic peptides

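Conditions beyond the assay type are not listed; see the original paper. The list need not hold all peptides of the study. Entries at the database's floor value (log10 P of -10) are not listed.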

PAMPA is the parallel artificial membrane permeability assay, which has no cells and reads passive diffusion.
Values are log10 P with P in cm/s, so -5 is more permeable than -7.

SMILES | PAMPA (log10 cm/s)
CC(C)C[C@@H]1NC(=O)C[C@H](Cc2ccccc2)NC(=O)[C@@H]2CCCN2C(=O)[C@H](Cc2ccccc2)NC(=O)[C@@H](CC(C)C)N(C)C(=O)[C@@H]2CCCN2C(=O)[C@@H](CC(C)C)NC1=O | -5.53
CC(C)C[C@@H]1NC(=O)[C@@H](C)NC(=O)[C@@H]2CCCN2C(=O)[C@H](Cc2ccccc2)NC(=O)[C@@H](CC(C)C)N(C)C(=O)[C@@H]2CCCN2C(=O)C[C@H](Cc2ccccc2)NC1=O | -5.89
CC(C)C[C@@H]1C(=O)N[C@@H](Cc2ccccc2)C(=O)N[C@H](C)C(=O)N[C@H](CC(C)C)C(=O)N[C@H](CC(C)C)C(=O)N2CCC[C@@H]2C(=O)N1C | -6.75
CCCN1CC(=O)N(C)[C@H](CC(C)C)C(=O)N(C)[C@@H](CC(C)C)C(=O)N2CCC[C@H]2C(=O)N(C)[C@H](CC(C)C)C(=O)N[C@@H](Cc2ccccc2)C1=O | -4.82
CC(C)C[C@@H]1NC(=O)[C@H]2CCCN2C(=O)[C@H](CC(C)C)N(C)C(=O)[C@@H](CC(C)C)NC(=O)[C@@H](C)N(C)C(=O)[C@@H]2CCCN2C(=O)[C@H](Cc2ccccc2)NC1=O | -6.30
CC(C)C[C@@H]1NC(=O)[C@H]2CCCN2C(=O)CN(Cc2ccccc2)C(=O)[C@H](CC(C)C)NC(=O)[C@@H](C)N(C)C(=O)[C@H]2CCCN2C(=O)[C@H](Cc2ccccc2)NC1=O | -6.29
CCCN1CC(=O)N[C@@H](CC(C)C)C(=O)N[C@H](CC(C)C)C(=O)N2CCC[C@@H]2C(=O)N(Cc2ccccc2)CC(=O)N[C@@H](Cc2ccccc2)C(=O)N2CCC[C@H]2C1=O | -5.69
CC(C)C[C@@H]1NC(=O)C[C@H](Cc2ccccc2)NC(=O)[C@@H]2CCCN2C(=O)[C@H](Cc2ccccc2)NC(=O)CN(Cc2ccccc2)C(=O)[C@@H]2CCCN2C(=O)[C@@H](CC(C)C)NC1=O | -5.73
CC(C)C[C@@H]1NC(=O)[C@@H](C)N(C)C(=O)[C@H](Cc2ccccc2)NC(=O)[C@@H](CC(C)C)N(C)C(=O)[C@H]2CCCN2C(=O)CN(Cc2ccccc2)C1=O | -5.21
CC(C)C[C@@H]1NC(=O)[C@@H](C)NC(=O)[C@H]2CCCN2C(=O)[C@H](Cc2ccccc2)NC(=O)[C@@H](CC(C)C)NC(=O)[C@H]2CCCN2C(=O)[C@H](CC(C)C)NC1=O | -5.34
CC(C)C[C@H]1NC(=O)[C@H](C)N(C)C(=O)[C@H]2CCCN2C(=O)[C@H](Cc2ccccc2)NC(=O)CN(Cc2ccccc2)C(=O)[C@@H]2CCCN2C(=O)[C@H](CC(C)C)N(C)C1=O | -5.56
CCCN1CC(=O)N(C)[C@@H](CC(C)C)C(=O)N[C@H](CC(C)C)C(=O)N2CCC[C@@H]2C(=O)N[C@@H](CC(C)C)C(=O)N[C@@H](Cc2ccccc2)C(=O)N2CCC[C@H]2C1=O | -6.77
CC(C)C[C@@H]1NC(=O)[C@@H]2CCCN2C(=O)[C@H](CC(C)C)NC(=O)[C@H](CC(C)C)N(C)C(=O)[C@@H](C)N(C)C(=O)[C@H](Cc2ccccc2)NC1=O | -5.79

A selection of 2 entries from above:

SMILES	PAMPA (log10 cm/s)
CCCN1CC(=O)N(C)[C@@H](CC(C)C)C(=O)N[C@H](CC(C)C)C(=O)N2CCC[C@@H]2C(=O)N[C@@H](CC(C)C)C(=O)N[C@@H](Cc2ccccc2)C(=O)N2CCC[C@H]2C1=O	-6.77
CC(C)C[C@@H]1NC(=O)[C@@H](C)NC(=O)[C@H]2CCCN2C(=O)[C@H](Cc2ccccc2)NC(=O)[C@@H](CC(C)C)NC(=O)[C@H]2CCCN2C(=O)[C@H](CC(C)C)NC1=O	-5.34

Source: CycPeptMPDB (Li et al. 2023), which took these values from Townsend et al. 2020, doi:10.26434/chemrxiv.13335941.v1.